Data reported in article PMC8815882, “Screening the pandemic response box identified benzimidazole carbamates, Olorofim and ravuconazole as promising drug candidates for the treatment of eumycetoma” (PLoS Neglected Tropical Diseases, 2022).
“And” between values parts separate entries of the source, which are not always exact repeats. Equal values may be shown once. Read-outs that look alike come from different tables or passages of the source.

Tested on: M. mycetomatis genome strain MM55
Assay: CLSI M38-A2 based in vitro susceptibility screening (XTT or resazurin), growth at fixed concentration
Format: cell-based, Madurella mycetomatis
Conditions: for activity at 25 µM / activity at 100 µM: Madurella mycetomatis
[1] = read-out: Percentage survival at 25um, 25 uM B
[2] = read-out: Percentage survival at 25um, 25 uM C
[3] = read-out: Percentage survival at 25um, 25 uM mean
[4] = read-out: Percentage survival at 25um, 25 um A
[5] = read-out: Percentage survival at 100um, 100 uM mean

SMILES	activity at 25 µM [1]	activity at 25 µM [2]	activity at 25 µM [3]	activity at 25 µM [4]	activity at 100 µM (read-out: Percentage survival at 100um, 100 uM A (first replicate column))	activity at 100 µM (read-out: Percentage survival at 100um, 100 uM A (second replicate column))	activity at 100 µM (read-out: Percentage survival at 100um, 100 uM A (third replicate column))	activity at 100 µM [5]	Percentage survival at 100um, 100 uM A	activity at 100 µM (read-out: Percentage survival at 100um, 100 uM A)
CCC[C@@H]1C[C@@H](C(=O)N[C@@H]([C@H]2O[C@H](SC)[C@H](O)[C@@H](O)[C@H]2O)[C@H](C)Cl)N(C)C1 [MMV000051]	142%	112%	113%	85.4%	84.7%	81.2%	91.2%	85.7%	–	–
CN(C)CCCOc1ccc(-c2ccc3ncc4c(c3c2)n(C2CCOCC2)c(=O)n4C)cn1 [MMV1580483]	97.1%	112%	101%	93.2%	–	–	–	82.7%	82.101% and 79.4709%	86.6%
